Experimental data from patent US5948635A, “Totally Synthetic Affinity Reagents” (University of North Carolina at Chapel Hill, priority 1995, dated 1999).

Sequences of proteins named here, by UniProt entry; tags and fusion partners are left off. Residues count along the entry.
UniProt P22629, 25-183: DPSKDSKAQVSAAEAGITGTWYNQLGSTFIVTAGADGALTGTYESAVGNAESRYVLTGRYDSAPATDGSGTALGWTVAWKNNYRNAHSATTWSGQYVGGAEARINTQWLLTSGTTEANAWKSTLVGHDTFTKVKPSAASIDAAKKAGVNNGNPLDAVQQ

Biological target: T1, streptavidin (Streptomyces avidinii, UniProt P22629)
T1 construct: purchased Advanced Magnetics, Cambridge, Mass
Assay: Inhibition of TSAR binding to streptavidin by biotin and biotin analogs
Protocol: Specificity of the binding of the identified proteins for streptavidin was investigated by evaluating inhibition of binding by biotin and by a number of biotin analogs, including diaminobiotin, immunobiotin, lipoic acid and imidazalidone. Four representative TSARs, pictured in Table 9, were evaluated, i.e., SA-1,-2, -4 and -14 (SEQ ID NOs. 116, 114, 104 and 117). […] IC50 values of about 0.2, 3, 1050 and 5000 μM, respectively, were observed.

Sequence: TWDFTRSSLPAGDTSFTSPGSYSVMTRSCGISCVPAEV [SA-14]
- inhibition of TSAR binding to streptavidin by biotin and all the biotin analogs tested: completely inhibited
